Source: US20060079453A1, “Hla binding peptides and their uses” (priority 2002, published 2006)

Chains of the proteins cited; added tags and fusions are not shown. Residues count along the entry.
UniProt P04439, 25-365: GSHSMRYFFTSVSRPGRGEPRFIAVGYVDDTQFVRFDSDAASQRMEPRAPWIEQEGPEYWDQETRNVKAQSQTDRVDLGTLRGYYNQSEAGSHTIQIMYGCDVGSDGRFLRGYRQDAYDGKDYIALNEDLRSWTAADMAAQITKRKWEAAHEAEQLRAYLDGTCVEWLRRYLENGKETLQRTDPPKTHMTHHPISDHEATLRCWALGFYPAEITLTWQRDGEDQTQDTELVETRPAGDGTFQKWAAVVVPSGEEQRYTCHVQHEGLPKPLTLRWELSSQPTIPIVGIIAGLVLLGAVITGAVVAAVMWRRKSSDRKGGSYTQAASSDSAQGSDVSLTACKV
UniProt Q30154, 30-266: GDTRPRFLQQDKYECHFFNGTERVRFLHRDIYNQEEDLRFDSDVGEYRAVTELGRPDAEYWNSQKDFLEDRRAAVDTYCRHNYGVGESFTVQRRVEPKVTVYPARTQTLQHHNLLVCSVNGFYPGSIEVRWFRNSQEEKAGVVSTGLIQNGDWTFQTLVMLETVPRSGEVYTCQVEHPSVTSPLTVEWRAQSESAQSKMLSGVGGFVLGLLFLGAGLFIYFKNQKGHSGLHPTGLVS
UniProt P79483, 30-266: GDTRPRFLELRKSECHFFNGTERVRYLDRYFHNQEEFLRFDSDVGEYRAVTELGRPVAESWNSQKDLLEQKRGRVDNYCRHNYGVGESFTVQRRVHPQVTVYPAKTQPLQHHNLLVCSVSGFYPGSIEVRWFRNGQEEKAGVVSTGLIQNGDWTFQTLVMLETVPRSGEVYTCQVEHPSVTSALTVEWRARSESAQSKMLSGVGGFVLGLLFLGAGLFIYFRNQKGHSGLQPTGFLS

What was measured:
Test in all cases: biochemical
HLA-A*3301 = HLA-A*3301 (Homo sapiens, UniProt P04439, A270S/D185E/E176V/E277Q/E87N/F33T/G231S/H175R/I121M/I218V/I322F/K168Q/K210R/L300P/L318F/M331R/P217A/Q86R/Q94H/R138Q/T323A/T345S/T97I/V358M/Y195H); format: binding
HLA-A*1101 = HLA-A*1101 (Homo sapiens, UniProt P04439, A114D/D185E/E176A/F33Y/L180Q/S129P/T187R); format: binding
HLA-A*0301 = HLA-A*0301 (Homo sapiens, UniProt P04439); format: binding
HLA-A*3101 = HLA-A*3101 (Homo sapiens, UniProt P04439, A270S/D185E/E176V/E277Q/F33T/G231S/G80R/H175R/I121M/I218V/I322F/K168Q/L300P/L318F/M331R/P217A/Q94H/R138Q/T323A/T345S/T97I/V358M); format: binding
HLA-A*6801 = HLA-A*6801 (Homo sapiens, UniProt P04439, A269V/D185E/E176V/E277Q/E87N/F33Y/G231S/I121M/I166T/I218V/L180W/L300P/L318F/N151K/P208A/P217A/Q86R/R169H/T345S); format: binding
HLA-DR DRB1*0301 (DR3) = HLA-DR DRB1*0301 (DR3) (Homo sapiens, UniProt P01903+P01911, A100K/A102G/A103R/A169T/F55Y/I96L/K41T/L162R/M171V/P40S/Q125H/Q178H/Q39Y/R42S/S66N/T106N/T262R/W38E/Y61H); format: binding
[1] = target: HLA-DQ DQA1*0501/B*0201 (DQ2) (Homo sapiens, UniProt P01909+P01920, A45G/A70V/D89A/E106A/E77G/E98D/H199R/L107V/N214S/P84L/P87L/T103K/T109R/T172A/T60S/V78E/V99I/Y58L/Y62S/Y69I/Y79F)
[2] = target: HLA-DQ DQA1*0301/B*0302 (DQ8) (Homo sapiens, UniProt P01909+P01920, A209T/A45G/C70Q/D89A/DUP78-78/E183D/E77G/F237L/G63E/H199R/I129T/K197E/L178F/L74F/L98V/Q57E/Q76R/S185I/S97I/T217I/T49S/V73L/Y58L)
HLA-DR DRB1*1101 (DR11) = HLA-DR DRB1*1101 (DR11) (Homo sapiens, UniProt P01903+P01911, A100R/A169T/A87E/I96F/K41T/L162R/M171V/P40S/Q125H/Q178H/Q39Y/Q99D/R42S/S66Y/T262R/V115G/W38E); format: binding; conditions: DRB1 *1101
HLA-DR DRB1*0802 (DR8) = HLA-DR DRB1*0802 (DR8) (Homo sapiens, UniProt P01903+P01911, A100R/A103L/A169T/F76Y/H45Y/I96F/K41T/L162R/M171V/P40S/Q125H/Q178H/Q39Y/Q99D/R218S/R42G/S66Y/V115G/W38E); format: binding
HLA-DR DRB5*0101 (DR51) = HLA-DR DRB5*0101 (DR51) (Homo sapiens, UniProt P01903+Q30154); format: binding; conditions: DRB5 *0101
HLA-DR DRB1*0701 (DR7) = HLA-DR DRB1*0701 (DR7) (Homo sapiens, UniProt P01903+P01911, A100R/A102G/A103Q/D57E/D86V/E43K/F76Y/K127E/L162R/M171V/P40G/Q125H/Q99D/R33Q/R42Y/R54Q/S133A/S66F/T210M/V115G/Y107V/Y59L/Y89S); format: binding; conditions: DRB1 *0701
HLA-DR DRB1*0901 (DR9) = HLA-DR DRB1*0901 (DR9) (Homo sapiens, UniProt P01903+P01911, A100R/A103E/D57H/D86V/F55Y/F60I/F76Y/I96F/K127E/L162R/M171V/P40D/Q125H/Q99R/R33Q/R42F/S133A/S66N/T210M/V115G/W38K/Y107V/Y59G/Y89S); format: binding; conditions: DRB1 *0901
HLA-DR DRB3*0101 (DR52) = HLA-DR DRB3*0101 (DR52) (Homo sapiens, UniProt P01903+P79483); format: binding

Compound: CC(C)C[C@H](NC(=O)[C@H](CC(=O)O)NC(=O)[C@H](C)NC(=O)[C@H](Cc1ccccc1)NC(=O)[C@H](C)N)C(=O)N[C@H](C(=O)N[C@H](C(=O)N[C@H](C(=O)N[C@@H](Cc1ccc(O)cc1)C(=O)N[C@@H](CCCCN)C(=O)O)C(C)C)C(C)C)[C@@H](C)O
- IC50 (HLA-A*3301): 13.6 µM

Compound: CC[C@H](C)[C@H](NC(=O)[C@H](CS)NC(=O)[C@H](CCCNC(=N)N)NC(=O)[C@@H](NC(=O)[C@H](CC(C)C)NC(=O)[C@H](CC(C)C)NC(=O)[C@@H](N)CC(=O)O)[C@@H](C)CC)C(=O)N[C@@H](CC(N)=O)C(=O)N[C@@H](CS)C(=O)N[C@@H](CCC(N)=O)C(=O)N[C@@H](CCCCN)C(=O)O
- IC50 (HLA-A*3301): 0.029 µM
- IC50 (HLA-A*1101): 935 nM
- IC50 (HLA-A*0301): 2920 nM
- IC50 (HLA-A*3101): 4.88 µM

Compound: CC[C@H](C)[C@H](NC(=O)[C@@H](NC(=O)[C@H](CC(C)C)NC(=O)[C@H](CC(=O)O)NC(=O)[C@@H](NC(=O)[C@@H](N)Cc1ccccc1)C(C)C)[C@@H](C)O)C(=O)N[C@H](C(=O)N[C@@H](Cc1ccc(O)cc1)C(=O)N[C@@H](CCCNC(=N)N)C(=O)O)C(C)C
- IC50 (HLA-A*6801): 138 nM

Compound: CC[C@H](C)[C@H](NC(=O)[C@H](C)NC(=O)CNC(=O)[C@@H](N)Cc1c[nH]cn1)C(=O)N[C@H](C(=O)N[C@@H](CO)C(=O)N[C@@H](CO)C(=O)N[C@@H](CC(N)=O)C(=O)N[C@H](C(=O)N[C@@H](CCCCN)C(=O)O)[C@@H](C)O)[C@@H](C)O
- IC50 (HLA-A*6801): 1240 nM

Compound: CC[C@H](C)[C@H](NC(=O)[C@H](C)NC(=O)[C@H](CCC(=O)O)NC(=O)[C@@H](N)CCCCN)C(=O)N[C@@H](CO)C(=O)N1CCC[C@H]1C(=O)N1CCC[C@H]1C(=O)N[C@@H](CC(=O)O)C(=O)N[C@@H](C)C(=O)N[C@@H](C)C(=O)N[C@@H](CO)C(=O)N[C@@H](C)C(=O)N[C@@H](C)C(=O)N1CCC[C@H]1C(=O)N[C@@H](CC(C)C)C(=O)O
- IC50 (HLA-DR DRB1*0301 (DR3)): 48.6 µM
- IC50 [1]: 7.29 µM
- IC50 [2]: 0.96 µM

Compound: CC(C)C[C@H](NC(=O)[C@H](CC(=O)O)NC(=O)[C@H](Cc1ccc(O)cc1)NC(=O)[C@@H](NC(=O)[C@H](CC(N)=O)NC(=O)[C@H](CO)NC(=O)[C@H](CC(=O)O)NC(=O)[C@H](CO)NC(=O)[C@H](C)NC(=O)CNC(=O)[C@H](Cc1ccc(O)cc1)NC(=O)[C@@H](NC(=O)[C@H](CC(C)C)NC(=O)[C@H](CO)NC(=O)[C@@H](N)CC(N)=O)C(C)C)C(C)C)C(=O)O
- IC50 (HLA-DR DRB1*0301 (DR3)): 81.2 µM
- IC50 [2]: 8.34 µM
- IC50 (HLA-DR DRB1*1101 (DR11)): > 15.4 µM
- IC50 (HLA-DR DRB1*0802 (DR8)): > 33.3 µM
- IC50 (HLA-DR DRB5*0101 (DR51)): > 13 µM

Compound: CC(C)C[C@H](NC(=O)[C@H](C)NC(=O)[C@H](CCC(N)=O)NC(=O)CNC(=O)[C@@H](N)CCCNC(=N)N)C(=O)N[C@@H](CC(C)C)C(=O)N[C@H](C(=O)N[C@@H](CC(N)=O)C(=O)N[C@@H](CO)C(=O)N[C@@H](CO)C(=O)N[C@@H](CCC(N)=O)C(=O)N1CCC[C@H]1C(=O)N[C@@H](Cc1c[nH]c2ccccc12)C(=O)N[C@@H](CCC(=O)O)C(=O)N1CCC[C@H]1C(=O)O)C(C)C
- IC50 (HLA-DR DRB1*0301 (DR3)): 93.9 µM
- IC50 [1]: 13.4 µM
- IC50 (HLA-DR DRB1*1101 (DR11)): 7.7 µM
- IC50 (HLA-DR DRB1*0802 (DR8)): 29.5 µM
- IC50 (HLA-DR DRB1*0701 (DR7)): 319 nM

Compound: CC(C)C[C@H](NC(=O)[C@@H]1CCCN1C(=O)[C@H](CC(C)C)NC(=O)[C@@H](N)CCCNC(=N)N)C(=O)N[C@@H](CC(C)C)C(=O)N1CCC[C@H]1C(=O)N[C@@H](CCCCN)C(=O)N[C@H](C(=O)N[C@@H](Cc1c[nH]c2ccccc12)C(=O)N[C@@H](CCCCN)C(=O)O)[C@@H](C)O
- IC50 (HLA-A*3301): 11.4 µM

Compound: CC(C)C[C@H](NC(=O)[C@H](C)NC(=O)[C@H](CCC(N)=O)NC(=O)CNC(=O)[C@H](CCCNC(=N)N)NC(=O)[C@H](CC(C)C)NC(=O)[C@@H](NC(=O)[C@H](C)NC(=O)[C@H](CCC(=O)O)NC(=O)[C@@H](N)CO)C(C)C)C(=O)N[C@@H](CC(C)C)C(=O)N[C@H](C(=O)N[C@@H](CC(N)=O)C(=O)N[C@@H](CO)C(=O)N[C@@H](CO)C(=O)O)C(C)C
- IC50 (HLA-DR DRB1*0301 (DR3)): 70.9 µM
- IC50 (HLA-DR DRB1*0901 (DR9)): > 78.9 µM
- IC50 [1]: 9.76 µM
- IC50 [2]: 36.4 µM
- IC50 (HLA-DR DRB1*0802 (DR8)): > 63.6 µM

Compound: C[C@@H](O)[C@H](NC(=O)[C@H](CCCNC(=N)N)NC(=O)[C@H](CO)NC(=O)[C@H](CO)NC(=O)[C@H](CCCNC(=N)N)NC(=O)[C@H](CS)NC(=O)[C@@H](NC(=O)[C@@H](N)CO)[C@@H](C)O)C(=O)N[C@@H](CCCNC(=N)N)C(=O)N[C@@H](CCCNC(=N)N)C(=O)O
- IC50 (HLA-A*3301): 1.02 µM

Compound: CC(C)[C@H](NC(=O)[C@@H](N)[C@@H](C)O)C(=O)N[C@@H](CCC(N)=O)C(=O)NCC(=O)N1CCC[C@H]1C(=O)NCC(=O)N1CCC[C@H]1C(=O)NCC(=O)N[C@@H](CCC(=O)O)C(=O)N[C@@H](CCCCN)C(=O)O
- IC50 (HLA-A*6801): 195 nM

Compound: CC(C)C[C@H](NC(=O)[C@@H](NC(=O)[C@H](C)NC(=O)[C@H](CCC(=O)O)NC(=O)[C@H](CO)NC(=O)[C@H](CC(C)C)NC(=O)[C@H](CC(C)C)NC(=O)[C@H](C)NC(=O)[C@H](CC(C)C)NC(=O)CNC(=O)[C@H](CCC(N)=O)NC(=O)[C@H](Cc1c[nH]c2ccccc12)NC(=O)[C@@H](NC(=O)[C@H](CCC(=O)O)NC(=O)[C@@H](N)C(C)C)C(C)C)C(C)C)C(=O)O
- IC50 [1]: 0.098 µM
- IC50 [2]: 0.014 µM
- IC50 (HLA-DR DRB3*0101 (DR52)): > 38.2 µM

Compound: CC(C)C[C@H](NC(=O)[C@H](CC(C)C)NC(=O)[C@H](C)NC(=O)[C@H](CC(C)C)NC(=O)CNC(=O)[C@H](CCC(N)=O)NC(=O)[C@H](Cc1c[nH]c2ccccc12)NC(=O)[C@@H](NC(=O)[C@H](CCC(=O)O)NC(=O)[C@@H](NC(=O)[C@H](C)NC(=O)[C@H](CCC(N)=O)NC(=O)[C@H](CCC(N)=O)NC(=O)CNC(=O)[C@@H](N)C(C)C)C(C)C)C(C)C)C(=O)O
- IC50 (HLA-DR DRB1*0301 (DR3)): > 174 µM
- IC50 (HLA-DR DRB1*0901 (DR9)): > 78.9 µM
- IC50 [1]: 0.838 µM
- IC50 [2]: 4.41 µM
- IC50 (HLA-DR DRB3*0101 (DR52)): > 38.2 µM
- IC50 (HLA-DR DRB1*1101 (DR11)): > 17.2 µM
- IC50 (HLA-DR DRB1*0802 (DR8)): > 40.5 µM
- IC50 (HLA-DR DRB5*0101 (DR51)): > 7.79 µM

Compound: CSCC[C@H](NC(=O)[C@H](CCCNC(=N)N)NC(=O)[C@H](CCCCN)NC(=O)[C@H](Cc1c[nH]c2ccccc12)NC(=O)[C@H](C)NC(=O)[C@H](Cc1ccc(O)cc1)NC(=O)[C@H](Cc1ccccc1)NC(=O)[C@H](CC(N)=O)NC(=O)[C@@H](NC(=O)[C@H](CCCCN)NC(=O)[C@@H](NC(=O)[C@H](CC(=O)O)NC(=O)[C@@H]1CCCN1C(=O)[C@@H](N)C(C)C)[C@@H](C)O)C(C)C)C(=O)N[C@@H](CCC(=O)O)C(=O)O
- IC50 [1]: > 147 µM
- IC50 [2]: > 46.7 µM

Compound: CC[C@H](C)[C@H](NC(=O)[C@H](CCCCN)NC(=O)[C@@H](NC(=O)[C@@H](NC(=O)[C@@H](N)C(C)C)[C@@H](C)O)C(C)C)C(=O)NCC(=O)NCC(=O)N[C@@H](CCC(N)=O)C(=O)N[C@@H](CC(C)C)C(=O)N[C@@H](CCCNC(=N)N)C(=O)O
- IC50 (HLA-A*1101): 194 nM

Compound: CC[C@H](C)[C@H](NC(=O)[C@H](CCCNC(=N)N)NC(=O)[C@@H](NC(=O)[C@@H](NC(=O)[C@@H](N)C(C)C)[C@@H](C)O)C(C)C)C(=O)NCC(=O)NCC(=O)N[C@@H](CCC(N)=O)C(=O)N[C@@H](CC(C)C)C(=O)N[C@@H](CCCCN)C(=O)O
- IC50 (HLA-A*3301): 40.3 µM
